B1:  (other)
chain: MIHSSVKRWGNSPAVRIPATLMQALNLNIDDEVKIDLVDGKLIIEPVRKEPVFTLAELVNDITPENL
B2: Gal4 DNA binding domain fusion of MazFΔ(1-14) (pGBD-MazFΔ(1-14)) (other)
chain: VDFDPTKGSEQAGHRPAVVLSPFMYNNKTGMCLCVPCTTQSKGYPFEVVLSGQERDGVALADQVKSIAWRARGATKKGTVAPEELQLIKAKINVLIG
B3: Gal4 DNA binding domain fusion of MazFΔ(97-111) (pGBD-MazFΔ(97-111)) (other)
chain: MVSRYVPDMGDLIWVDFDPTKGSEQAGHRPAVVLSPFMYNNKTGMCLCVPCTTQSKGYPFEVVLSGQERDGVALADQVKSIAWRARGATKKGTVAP
B4: Gal4 DNA binding domain fusion of MazFΔ(72-111) (pGBD-MazFΔ(72-111)) (other)
chain: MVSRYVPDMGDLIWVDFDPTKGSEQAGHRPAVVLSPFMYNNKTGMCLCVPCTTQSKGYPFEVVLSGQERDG
B5: Gal4 DNA binding domain fusion of MazFΔ(1-25) (pGBD-MazFΔ(1-25)) (other)
chain: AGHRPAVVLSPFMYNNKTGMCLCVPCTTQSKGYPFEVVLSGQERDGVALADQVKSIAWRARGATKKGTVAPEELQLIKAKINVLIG

Each binder was assayed against Gal4 DNA binding domain fusion of full-length MazF (pGBD-MazF) (Escherichia coli, UniProt P04386 1-147) (assay: yeast two-hybrid, no growth on SD medium lacking Trp, Leu, His and Ade).
B1: no binding.
VRKEPVFTLAELVNDITPENLHENIDWGEPKDKEVW (other) [Gal4 transcriptional activation domain fusion of MazEΔ(1-46) (pGAD-MazEΔ(1-46))]: no binding.

Target: T1, Gal4 transcriptional activation domain fusion of full-length MazE (pGAD-MazE) (Escherichia coli)
T1 chain: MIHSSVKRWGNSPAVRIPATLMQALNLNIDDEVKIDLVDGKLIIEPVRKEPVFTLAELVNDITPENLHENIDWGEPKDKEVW
Assay: yeast two-hybrid, no growth on medium lacking Trp, Leu, His and Ade
B2: no binding.
B3: no binding.
B4: no binding.
B5: no binding.
